Results from patent US6350737B1, “Platinum complex, its preparation and therapeutic application” (Pliva-Lachema, A.S., priority 1998, dated 2002).

Experimental: Mice female DBA/1 of body mass 22.9-25.8 g were used in this experiment. Tumors were developed by s.c. inoculation of 0.2 ml of a tumor homogenate diluted in 1:1 volume ratio with an isotonic glucose solution. Tested compounds were applied in a form of an isotonic water solution prepared immediately before application by dissolution of corresponding lyophilised product in water for injections and further by dilution with isotonic sodium chloride solution ad hoc according to the need, in volumes of 0.1-0.4 ml per 20 g of body mass of an animal, as apparent from the following table.

cis-(1-adamantylamine) amminedichloroplatinum (II) [LA-9]
loss of body weight (administration of LA-9 to tumor-bearing mice): less than 10%
maximum tolerable dose (MDT) (estimated, mice): around 25 mg/kg
